In ChEMBL document CHEMBL1143353, “Pyrazolo[1,5-a]-1,3,5-triazine as a purine bioisostere: access to potent cyclin-dependent kinase inhibitor (R)-roscovitine analogue” (J Med Chem, 2009):

Assay: Inhibition of starfish oocytes CDK1/cyclin B
Parameters: species or system Marthasterias glacialis
Settings: oocyte

CC(C)[C@H](CO)Nc1nc(Nc2cccc(Cl)c2)c2ncn(C(C)C)c2n1 [PURVALANOLA]
IC50: 4 nM
